Assays:
rat α3β4 nAChR = rat α3β4 nAChR (Rattus norvegicus, UniProt P04757+P12392); assay: biochemical; conditions: read-out: Ki α3β4
human α4β2-nAChRs = human α4β2-nAChRs (Homo sapiens, UniProt P17787+P43681)

By UniProt entry, the sequences of proteins in these tests, tags left out. Residues count along the entry.
UniProt P04757, 26-499: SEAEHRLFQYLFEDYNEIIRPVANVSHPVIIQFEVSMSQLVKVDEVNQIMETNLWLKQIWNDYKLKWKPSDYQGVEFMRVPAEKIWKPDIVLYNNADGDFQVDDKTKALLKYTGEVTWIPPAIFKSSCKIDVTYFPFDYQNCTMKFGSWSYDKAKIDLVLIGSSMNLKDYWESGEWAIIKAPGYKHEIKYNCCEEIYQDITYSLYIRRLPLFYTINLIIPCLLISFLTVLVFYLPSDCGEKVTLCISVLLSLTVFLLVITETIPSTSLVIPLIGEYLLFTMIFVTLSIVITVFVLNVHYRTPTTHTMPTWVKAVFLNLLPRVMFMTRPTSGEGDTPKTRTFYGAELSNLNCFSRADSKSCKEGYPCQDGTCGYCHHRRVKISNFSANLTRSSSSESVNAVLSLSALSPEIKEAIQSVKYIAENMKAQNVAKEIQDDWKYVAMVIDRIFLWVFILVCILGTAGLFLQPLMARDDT
UniProt P12392, 21-495: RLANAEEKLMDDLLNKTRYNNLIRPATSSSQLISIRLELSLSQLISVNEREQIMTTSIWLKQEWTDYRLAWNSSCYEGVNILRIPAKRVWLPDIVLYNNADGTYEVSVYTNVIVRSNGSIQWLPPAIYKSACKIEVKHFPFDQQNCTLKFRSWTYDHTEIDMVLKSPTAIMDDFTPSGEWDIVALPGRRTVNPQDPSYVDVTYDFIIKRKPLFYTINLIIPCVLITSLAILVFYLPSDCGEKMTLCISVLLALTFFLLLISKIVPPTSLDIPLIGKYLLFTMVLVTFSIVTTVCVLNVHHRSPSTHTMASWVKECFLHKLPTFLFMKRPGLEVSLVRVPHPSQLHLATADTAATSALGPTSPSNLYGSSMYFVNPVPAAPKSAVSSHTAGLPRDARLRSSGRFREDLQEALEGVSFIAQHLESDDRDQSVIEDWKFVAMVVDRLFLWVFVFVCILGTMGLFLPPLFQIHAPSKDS
UniProt P17787, 26-502: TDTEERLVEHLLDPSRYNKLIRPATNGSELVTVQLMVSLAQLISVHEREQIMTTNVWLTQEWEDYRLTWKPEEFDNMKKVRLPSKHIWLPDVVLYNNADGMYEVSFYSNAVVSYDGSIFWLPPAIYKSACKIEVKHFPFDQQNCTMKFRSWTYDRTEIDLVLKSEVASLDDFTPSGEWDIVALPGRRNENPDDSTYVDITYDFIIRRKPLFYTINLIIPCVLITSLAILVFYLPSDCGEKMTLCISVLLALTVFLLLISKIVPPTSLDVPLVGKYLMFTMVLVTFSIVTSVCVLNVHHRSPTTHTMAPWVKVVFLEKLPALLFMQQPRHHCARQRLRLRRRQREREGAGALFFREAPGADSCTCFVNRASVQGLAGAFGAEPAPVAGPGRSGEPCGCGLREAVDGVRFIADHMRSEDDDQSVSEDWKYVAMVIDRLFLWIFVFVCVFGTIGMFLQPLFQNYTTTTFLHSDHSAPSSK
UniProt P43681, 29-627 limits assumed: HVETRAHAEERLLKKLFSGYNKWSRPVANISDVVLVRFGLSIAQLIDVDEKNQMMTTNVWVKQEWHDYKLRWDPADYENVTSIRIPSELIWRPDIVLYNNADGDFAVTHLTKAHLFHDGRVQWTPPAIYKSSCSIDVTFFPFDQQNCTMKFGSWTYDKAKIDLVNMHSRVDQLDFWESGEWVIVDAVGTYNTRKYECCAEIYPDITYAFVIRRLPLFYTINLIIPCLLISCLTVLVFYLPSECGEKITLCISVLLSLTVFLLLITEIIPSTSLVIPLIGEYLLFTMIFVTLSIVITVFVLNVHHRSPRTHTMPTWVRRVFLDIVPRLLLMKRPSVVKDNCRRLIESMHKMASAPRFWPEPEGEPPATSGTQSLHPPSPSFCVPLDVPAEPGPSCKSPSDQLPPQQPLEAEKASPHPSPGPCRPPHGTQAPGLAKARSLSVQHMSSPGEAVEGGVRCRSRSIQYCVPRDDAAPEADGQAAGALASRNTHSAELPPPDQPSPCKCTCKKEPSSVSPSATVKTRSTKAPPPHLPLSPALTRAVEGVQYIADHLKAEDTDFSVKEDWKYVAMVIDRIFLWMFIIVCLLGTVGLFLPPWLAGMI

Molecule `COCC[C@H]1C[C@@H]1c1cncc(OC[C@@H]2CCCN2)c1.O=C(O)C(F)(F)F` [Compound 24, 3-[(2(S)-Pyrrolidinyl)methoxy]-5-[(1S,2R)-2-(2-methoxyethyl)cyclopropyl]pyridine Trifluoroacetate] has an inhibition at 10 µM (rat α3β4 nAChR) of less than 50%.
For `CN1CCC[C@H]1c1cccnc1` [nicotine, reference compound], the “Agonism α4β2 Efficacy at HS” value (human α4β2-nAChRs) was 125 ± 10%.
